As a reminder, the Ki is a dissociation constant, usually derived from enzyme kinetics or from competition with a known ligand. The low end stands for a stronger hold on the target, the high end for a looser hold on the target. As usually defined, the EC50 is the concentration that produces a half-maximal response. The low end stands for higher potency in that assay, the high end for lower potency in that assay.

For 1 molecule, Ki and EC50 results are on record in patent publication US5807824A, “C5A receptor antagonists having substantially no agonist activity” (priority 1995, dated 1998).

In test [1] the target is T1, C5a receptor (Homo sapiens, UniProt P21730).
T1 construct: Neutrophils were purified from human peripheral blood; endogenous in cells; host or cells: neutrophils from human peripheral blood
T1 sequence (P21730 1-350): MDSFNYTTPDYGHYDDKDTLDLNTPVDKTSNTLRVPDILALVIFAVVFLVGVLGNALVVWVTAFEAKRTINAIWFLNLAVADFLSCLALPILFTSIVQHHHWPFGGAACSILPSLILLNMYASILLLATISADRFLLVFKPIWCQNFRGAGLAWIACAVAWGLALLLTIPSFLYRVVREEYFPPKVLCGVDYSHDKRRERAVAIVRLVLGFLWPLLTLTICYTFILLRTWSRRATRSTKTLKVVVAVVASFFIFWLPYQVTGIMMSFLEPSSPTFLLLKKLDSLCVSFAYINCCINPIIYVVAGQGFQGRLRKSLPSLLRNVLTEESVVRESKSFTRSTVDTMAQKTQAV
The test is described as follows: Receptor binding assay: displacement of [125I]Bolton-Hunter labelled C5a from PMNL membranes. The settings on record: Table 6, Example 10 comparison with decapeptide. The procedure: C5a and C5a receptor antagonists were tested for their affinity for the C5a receptor. […] PMNLs were resuspended in Hanks balanced salt solution, without Ca^++ and Mg^++ and which contained 10 mM HEPES at pH 7.3, 2.5 mM MgCl2, 100 units/ml DNAse I, 0.1 mM PMSF, 10 μg/ml aprotonin and 10 μg/ml leupeptin. They were then equilibrated at 400 psi for 20 min at 4° C. in a nitrogen cavitation bomb. After evacuation into 3 volumes 0.5M KHCO3 containing 25 mM EDTA and the protease inhibitors listed above, the gelatinous material was removed with forceps and the mixture was centrifuged at 400×g for 10 min at 4° C. The resulting supernatant was centrifuged at 50,000×g for 60 min at 4° C. The pellets from the aliquots representing 200×10^6 cells were stored at -70° C. […]
Nonspecific binding was determined in the presence of 10 nM unlabelled C5a. […] Bound and free radioactivity were separated by vacuum filtration through GF/C glass fiber filters (Whatman), pretreated for 90 min with 0.05% PEI (polyethyleneimine) using a Cell Harvester (Brandel, Gaithersburg, Md.). Filters were washed with 3×5 ml of ice-cold 5 mM Tris buffer at pH 7.4 and counted in a multiwell Gamma counter (Genesys). Data were analyzed using the non-linear regression analysis program, RS/1 (Bolt, Beranek and Newman, Boston) and expressed as IC50 values. […]
On the technique in general: In a radioligand displacement assay an active substance lowers the binding of a labelled ligand.

Test [2] concerns the target T1, C5a receptor. The test can be described thus: C5a induced Ca++ rise assay in fura-2 loaded neutrophils. It is filed as cell-based. As to conditions: Table 6, Example 10 comparison with decapeptide. The text has this: The antagonism of the instant C5a analogues may be quantified as an IC50 in the calcium rise assay disclosed in Seligmann et al., Agents and Actions 21:375-378 (1987), described in detail in Example 7.
See Hugli et al., CRC Crit. Rev. Immunol. 1:321-326 (1981) and PCT WO 92/10205. A quantitative measure of this property may also be obtained using the calcium rise assay disclosed in Seligmann et al., supra, also described in Example 7. EC50 is a measure of agonistic activity. For purposes of the present invention, the EC50 value is that concentration of C5a analogue which produces 50% of the maximum response caused by that same C5a analogue. Applicants have not detected agonist activity of the instant C5a analogues up to a concentration of at least about 8.0×10^-7 M, and preferably at least about 3.0×10^-6 M in the same calcium rise assay.
Recombinant human C5a was dissolved in Hanks buffer containing 0.01% Tween-20, and all stock dilutions of C5a were made in this buffer. […] The amount of fluorescence was determined using an SLM 8000 spectrofluorometer (SLM-Aminco Instruments, Urbana, Ill.). Curvettes were placed in the fluorometer and after obtaining a baseline for 10 sec, the C5a receptor antagonists to be tested for antagonistic properties were added and any change in fluoresence excitation ratio of 340 nm/380 nm (emission of 510 nm) was measured. […]

On to `CC[C@H](C)[C@H](N)C(=O)N[C@@H](CO)C(=O)N[C@@H](Cc1ccccc1)C(=O)N[C@@H](CCCCN)C(=O)N[C@@H](CC(=O)O)C(=O)N[C@@H](CCSC)C(=O)N[C@@H](CCC(N)=O)C(=O)N[C@@H](CC(C)C)C(=O)NCC(=O)N[C@@H](CCCN=C(N)N)C(=O)O` [Decapeptide, reference compound], for which the Ki on C5a receptor [1] came to 5 µM. The molecule further returned an EC50 at C5a receptor [2] of 2.06 µM.
